# Results from ChEMBL document CHEMBL4219244, “Blocking Alcoholic Steatosis in Mice with a Peripherally Restricted Purine Antagonist of the Type 1 Cannabinoid Receptor” (J Med Chem, 2018).
# Species on record: Homo sapiens
# Assay: Selectivity ratio of Ki for human CB2 to Ki for human CB1
row,Ratio Ki,Compound
1,150,Cc1nc(CN2CCN(c3ncnc4c3nc(-c3ccccc3Cl)n4-c3ccc(Cl)cc3)CC2)no1
2,120,Cc1c(CN2CCN(c3ncnc4c3nc(-c3ccccc3Cl)n4-c3ccc(Cl)cc3)CC2)cnn1C

row,Compound,Ratio Ki
1,Clc1ccc(-n2c(-c3ccccc3Cl)nc3c(N4CCN(Cc5ccncc5)CC4)ncnc32)cc1,77
